Measured boiling point values of organic chemicals

Source: data files of OPERA 2.9 (Mansouri et al.), github.com/kmansouri/OPERA.

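OPERA's authors assembled the values from existing databases and did not measure them anew. The files give a single number for a compound and property, which may rest on several reports. Method, purity and exact conditions of the single measurements are not given. The measured form (salt, isomer or mixture) is not always the one drawn. Unmarked limits or estimates from the upstream databases cannot be ruled out.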

The boiling point refers to atmospheric pressure (760 mmHg), by the definition of the set. "via" names the databases from which the curators took the value.

CN(C)[Si](C)(CCC(F)(F)C(F)(F)C(F)(F)C(F)(F)C(F)(F)C(F)(F)C(F)(F)C(F)(F)F)N(C)C has BP 74 °C (via ChemicalBook). The entry for O=S(=O)(F)OC(F)(F)C(F)(F)Cl [2-Chloro-1,1,2,2-tetrafluoroethyl sulfurofluoridate] lists BP 54 °C (via ChemicalBook). Listed for O=C(/C=C/c1ccco1)c1ccccc1 [(2E)-3-(2-Furyl)-1-phenyl-2-propen-1-one]: BP 317 °C (via OCHEM). Listed for CC(C)CC(=O)N1CCCC(CO)C1 (centres undefined) [1-[3-(Hydroxymethyl)-1-piperidinyl]-3-methyl-1-butanone]: BP 326 °C (via eChemPortal). Clc1cccc2cnsc12 [Benclothiaz] is reported with BP 189 °C (via OCHEM). Fc1c(F)c(F)c2c(c1F)C(F)(F)OC2(F)F [1,1,3,3,4,5,6,7-Octafluoro-1,3-dihydro-2-benzofuran] has BP 128.3 °C (via ChemicalBook). Cc1ccc([C@@H](C)N)cc1 [(+)-1-(4-Methylphenyl)ethylamine] is reported with BP 205 °C (via eChemPortal). The entry for FC(F)C(F)(Cl)Cl [1,1-dichloro-1,2,2-trifluoroethane] lists BP 30.2 °C (via PubChem).

For CCCC(C)CCCO (centres undefined) [4-Methyl-1-heptanol] the data give BP 188 °C (via OCHEM). Listed for CC(C)=CCC/C(C)=C/CC/C(C)=C/CC/C=C(\C)CC/C=C(\C)CCC=C(C)C [(E)-Squalene]: BP 335 °C (via eChemPortal). The entry for CCCCNCCC[Si](C)(OC)OC [N-[3-(Dimethoxymethylsilyl)propyl]-1-butanamine] lists BP 238 °C (via eChemPortal). C#CC(C)OC(C)OCC (centres undefined) [1-Butyne, 3-(1-ethoxyethoxy)-] has BP 147 °C (via eChemPortal). Listed for C1CCC2C(C1)CC1CCCCC12 (centres undefined) [Dodecahydro-1H-fluorene]: BP 260 °C (via OCHEM). The entry for CCCCC(CC)COC(=O)/C=C/c1ccc(OC)cc1 (stereo partly drawn) [2-Ethylhexyl trans-4-methoxycinnamate] lists BP 382 °C (via eChemPortal). The entry for CC(C)=CCC/C(C)=C/CC/C(C)=C/CCO [Homofarnesol] lists BP 324 °C (via eChemPortal). CC(=O)/C(C)=C/C(C)C [(3E)-3,5-Dimethyl-3-hexen-2-one] has BP 164 °C (via eChemPortal).

The entry for O=CC(F)(F)C(F)(F)C(F)(F)C(F)(F)C(F)(F)C(F)(F)F [Perfluoroheptanal] lists BP 91 °C (via OCHEM). O=CCC(F)(F)C(F)(F)C(F)(F)C(F)(F)C(F)(F)C(F)(F)C(F)(F)C(F)(F)F [3,3,4,4,5,5,6,6,7,7,8,8,9,9,10,10,10-Heptadecafluorodecanal] is reported with BP 176 °C (via OCHEM). Listed for O=C(O)C(F)(F)C(F)(F)C(F)(F)C(F)(F)C(F)(F)C(F)(F)C(F)(C(F)(F)F)C(F)(F)F: BP 218 °C (via OCHEM). For CCC(O)CN(CC(O)CC)CC(O)CC (centres undefined) [1,1',1''-Nitrilotri(butan-2-ol)] the data give BP 310 °C (via OCHEM). For CC(C)(O)C(F)(F)C(F)C(F)(F)F (centres undefined) [3,3,4,5,5,5-Hexafluoro-2-methylpentan-2-ol] the data give BP 127 °C (via ChemicalBook). CC(C)(C)c1cc(C(C)(C)c2ccc(O)c(C(C)(C)C)c2)ccc1O [4,4'-Propane-2,2-diylbis(2-tert-butylphenol)] has BP 433.2 °C (via OFMPub). For Cc1cc(CC(C)C)ccc1C=O [4-isobutyl-2-methylbenzaldehyde] the data give BP 262 °C (via eChemPortal). For CC(C)(C)OCl [Hypochlorous acid, 1,1-dimethylethyl ester] the data give BP 77.5 °C (via OCHEM).

Listed for C#CC/C=C/C [2-Hexen-4-yne]: BP 88.5 °C (via OCHEM). For CCCC(F)(F)C(F)(F)C(F)(F)F [1,1,1,2,2,3,3-Heptafluorohexane] the data give BP 64.5 °C (via ChemicalBook). Brc1cccc(C2OCCO2)c1 [1,3-Dioxolane, 2-(3-bromophenyl)-] is reported with BP 132 °C (via OCHEM). O=C(O)C(F)(F)C(F)(F)C(F)(C(F)(F)F)C(F)(F)F [2,2,3,3,4,5,5,5-octafluoro-4-(trifluoromethyl)pentanoic acid] is reported with BP 157 °C (via OCHEM). O=C1OC(C(Cl)(Cl)Cl)OC1C(Cl)(Cl)Cl (centres undefined) [2,5-Bis(trichloromethyl)-1,3-dioxolan-4-one] is reported with BP 272 °C (via OCHEM). The entry for C=C(F)C(F)(F)C(F)(F)F [1H,1H-Perfluorobutene] lists BP 5 °C (via ChemicalBook). Listed for CCCCCC(=O)c1ccc(O)cc1O [1-(2,4-Dihydroxyphenyl)hexan-1-one]: BP 343 °C (via OCHEM). For N#CC(F)(F)C(F)(F)C(F)(F)C(F)(F)C(F)(F)F [Undecafluorohexanenitrile] the data give BP 53 °C (via ChemicalBook).

For CCOC(C)C#N (centres undefined) [2-Ethoxypropanenitrile] the data give BP 136 °C (via OCHEM). For Cc1ccc(C(C)C)cc1Cl [2-Chloro-1-methyl-4-(propan-2-yl)benzene] the data give BP 216 °C (via OCHEM). The entry for CCCCCCCCC1CC2C=CC1C2 (centres undefined) [Bicyclo[2.2.1]hept-2-ene, 5-octyl-] lists BP 264.2 °C (via eChemPortal). For CCC(CC)CN [2-Ethyl butylamine] the data give BP 125 °C (via PubChem). For CC(=O)OCC(Br)(Br)Br [2,2,2-Tribromoethyl acetate] the data give BP 225 °C (via OCHEM). Fc1ccc2c(c1)CC[C@@H]([C@H]1CO1)O2 (racemic) has BP 285.4 °C (via eChemPortal).

Repeated from above, the 3 entries with the highest BP:

{"smiles": "CC(C)(C)c1cc(C(C)(C)c2ccc(O)c(C(C)(C)C)c2)ccc1O", "name": "4,4'-Propane-2,2-diylbis(2-tert-butylphenol)", "BP (°C)": "433.2", "via": "OFMPub"}
{"smiles": "CCCCC(CC)COC(=O)/C=C/c1ccc(OC)cc1", "stereo": "stereo partly drawn", "name": "2-Ethylhexyl trans-4-methoxycinnamate", "BP (°C)": "382", "via": "eChemPortal"}
{"smiles": "CCCCCC(=O)c1ccc(O)cc1O", "name": "1-(2,4-Dihydroxyphenyl)hexan-1-one", "BP (°C)": "343", "via": "OCHEM"}